Test results taken from patent US20230416203A1, “POTENT AND SELECTIVE INHIBITORS OF THE CALCIUM-ACTIVATED POTASSIUM CHANNEL, KCA3.1, FOR USE AS PLATFORM THERAPEUTICS” (priority 2020, published 2023).

Protein sequences, listed by entry. Tags and fused reporters are not part of them.
UniProt O15554, whole entry: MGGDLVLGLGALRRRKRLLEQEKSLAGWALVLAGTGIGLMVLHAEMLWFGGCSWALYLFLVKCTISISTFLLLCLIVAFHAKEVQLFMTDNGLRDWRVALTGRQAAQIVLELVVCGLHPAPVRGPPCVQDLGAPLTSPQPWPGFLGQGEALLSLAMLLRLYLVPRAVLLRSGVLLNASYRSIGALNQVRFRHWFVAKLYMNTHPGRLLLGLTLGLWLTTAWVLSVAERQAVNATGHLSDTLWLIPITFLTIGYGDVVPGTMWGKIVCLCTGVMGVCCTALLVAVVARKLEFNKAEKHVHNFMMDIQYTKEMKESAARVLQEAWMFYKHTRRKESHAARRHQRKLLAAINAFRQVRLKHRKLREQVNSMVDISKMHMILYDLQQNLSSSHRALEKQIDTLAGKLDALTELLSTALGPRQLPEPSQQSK

Target: KCa3.1 channel (Homo sapiens, UniProt O15554)
Assay: KCa3.1 patch-clamp (QPatch HTX automated and manual)
Type: cell-based
Details: block of KCa3.1, patch clamp (Table 2)

Q: How did the IC50 turn out when `COC(=O)C1=C(C#N)NC(C)=C(C(=O)OC(C)C)C1c1cccc([N+](=O)[O-])c1` (stereo not shown) was run?
A: 5 µM
